Measured values taken from ChEMBL document CHEMBL5532679, “Discovery and Characterization of RGH-122, a Potent, Selective, and Orally Bioavailable V1a Receptor Antagonist” (J Med Chem, 2024).
One block for each compound: values may come before it. Calls of active or inactive are those of the source. The calls are words filed in the database; no cut-off is given here.

Protein sequences, listed by entry. Tags and fused reporters are not part of them.
UniProt P41595, whole entry: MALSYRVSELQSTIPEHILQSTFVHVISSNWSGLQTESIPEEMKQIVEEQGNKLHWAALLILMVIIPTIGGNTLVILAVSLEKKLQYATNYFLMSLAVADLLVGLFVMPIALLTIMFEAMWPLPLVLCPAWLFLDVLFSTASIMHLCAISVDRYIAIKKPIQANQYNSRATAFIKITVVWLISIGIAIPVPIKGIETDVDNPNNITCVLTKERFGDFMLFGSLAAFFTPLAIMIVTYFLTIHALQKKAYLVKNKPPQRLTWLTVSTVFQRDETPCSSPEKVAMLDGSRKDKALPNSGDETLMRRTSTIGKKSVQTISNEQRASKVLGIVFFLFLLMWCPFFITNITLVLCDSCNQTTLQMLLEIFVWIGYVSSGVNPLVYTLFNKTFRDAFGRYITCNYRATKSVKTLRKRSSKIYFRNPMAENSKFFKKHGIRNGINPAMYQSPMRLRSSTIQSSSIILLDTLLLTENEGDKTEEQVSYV

Assays:
[1] = Chemical stability of compound in PBS buffer at pH 7.4 measured for 24 hrs; format: physicochemical; conditions: pH 7.4, 24 h
[2] = Toxicity in rat assessed as NOAEL at 300 mg/kg, po measured for 4 days; format: organism-based; conditions: in vivo, 96 h, time 4 day
[3] = molecular target: T1, Vasopressin V1b receptor (Homo sapiens) (UniProt P47901); experiment: Binding affinity to human V1b receptor at 10 uM relative to control
T1 sequence (whole entry): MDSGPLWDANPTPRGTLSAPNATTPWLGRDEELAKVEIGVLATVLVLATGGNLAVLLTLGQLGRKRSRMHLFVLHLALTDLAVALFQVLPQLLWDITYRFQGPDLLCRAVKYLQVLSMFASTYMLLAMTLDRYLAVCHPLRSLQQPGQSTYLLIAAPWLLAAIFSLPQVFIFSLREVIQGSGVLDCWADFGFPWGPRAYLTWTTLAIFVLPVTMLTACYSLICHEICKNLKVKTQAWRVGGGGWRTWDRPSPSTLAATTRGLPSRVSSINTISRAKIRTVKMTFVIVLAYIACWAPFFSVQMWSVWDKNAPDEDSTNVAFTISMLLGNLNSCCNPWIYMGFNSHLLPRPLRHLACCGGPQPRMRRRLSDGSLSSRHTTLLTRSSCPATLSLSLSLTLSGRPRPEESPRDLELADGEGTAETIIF

[4] = Toxicity in dog assessed as NOAEL at 10 mg/kg, po; format: organism-based, Canis lupus familiaris; conditions: in vivo
[5] = Chemical stability of compound in SIF buffer at pH 6.8 measured after 4 hrs; format: ADME, physicochemical; conditions: simulated gi fluid, pH 6.8, 4 h
[6] = AUC in rat at 300 mg/kg, po; format: ADME, organism-based; conditions: in vivo
[7] = Chemical stability of compound in SGF buffer at pH 1.2 measured after 4 hrs; format: ADME, physicochemical; conditions: simulated gi fluid, pH 1.2, 4 h
Rattus norvegicus = experiment: Improvement in social behavior in Wistar rat social withdrawal model assessed as improvement in valproic acid-induced social recognition memory at 15 mg/kg, ip administered from day 52 and measured after 60 days; format: functional, organism-based; conditions: time 8.0 day
[8] = molecular target: 5-hydroxytryptamine receptor 2B (Homo sapiens) (UniProt P41595); experiment: Displacement of [3H] LSD from full length recombinant human 5-HT2B receptor by scintillation counting analysis; conditions: filed as agonist

- Stability [1]: Stable
- Activity [3]: 16%
- Stability [5]: Stable
- AUC [6]: 14971 ng/mL
- Stability [7]: Stable
Compound: Clc1ccc2c(c1)CC1(Cc3nnc([C@H]4CC[C@H](Oc5ccccn5)CC4)n3-2)OCCO1
- Activity [2]: Non-Toxic
- Activity [4]: Non-Toxic

Compound: CN1Cc2cc(Cl)ccc2-n2c(nnc2[C@H]2CC[C@H](Oc3ccccn3)CC2)C1 [BALOVAPTAN]
- Activity (Rattus norvegicus): Active

- Activity [8]: Active
Compound: CC(C)N[C@@H]1Cc2cc(Cl)ccc2-n2c(nnc2[C@H]2CC[C@H](Oc3ccccn3)CC2)C1
